One test concerns the target JAK2 (a.a. 828-1132) (Homo sapiens (Human), UniProt O60674). Put plainly: In vitro JAK kinase assay (HTRF), JAK2 relative to JAK1. Format: biochemical. The note with it: IC50 ratio, 1 mM ATP. A general note: TR-FRET usually uses a lanthanide donor and a delayed reading to cut background.
Test [1] deals with human JAK1 (a.a. 837-1142) (Homo sapiens (Human), UniProt P23458). Put plainly: In vitro JAK kinase assay (HTRF), JAK1. In kind it is biochemical. The note with it: read-out: JAK1 IC50; 1 mM ATP.

Chains of the proteins cited; added tags and fusions are not shown. Residues count along the entry.
UniProt O60674, 828-1132 limits assumed: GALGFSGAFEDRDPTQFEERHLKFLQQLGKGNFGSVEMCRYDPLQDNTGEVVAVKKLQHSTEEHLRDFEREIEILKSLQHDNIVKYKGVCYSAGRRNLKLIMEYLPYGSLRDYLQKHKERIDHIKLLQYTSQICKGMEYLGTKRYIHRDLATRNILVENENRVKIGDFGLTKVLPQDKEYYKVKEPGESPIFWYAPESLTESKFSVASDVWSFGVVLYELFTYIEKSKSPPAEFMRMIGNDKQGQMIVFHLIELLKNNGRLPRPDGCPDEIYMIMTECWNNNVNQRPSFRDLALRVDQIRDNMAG
UniProt P23458, 837-1142 limits assumed: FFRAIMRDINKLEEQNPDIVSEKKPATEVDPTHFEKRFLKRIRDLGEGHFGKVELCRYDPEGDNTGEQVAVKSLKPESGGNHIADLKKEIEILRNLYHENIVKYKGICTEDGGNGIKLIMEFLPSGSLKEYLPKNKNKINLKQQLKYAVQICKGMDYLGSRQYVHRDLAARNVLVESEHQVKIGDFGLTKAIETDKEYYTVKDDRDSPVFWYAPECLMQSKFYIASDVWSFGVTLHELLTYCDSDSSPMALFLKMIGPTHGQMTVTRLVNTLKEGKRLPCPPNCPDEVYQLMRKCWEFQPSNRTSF

Molecules are shown by their SMILES. Bounds are passed on as bounds.

In the case of `N#CCC(CN1CCN(C(=O)c2ccc(C#N)cc2F)CC1)n1cc(-c2ncnc3[nH]ccc23)cn1` (stereo not shown), on JAK2 (a.a. 828-1132), the JAK2/JAK1 is over 10. The IC50 (in general, the concentration that gives 50% inhibition) in test [1] is under 10 nM.

For the compound `C[C@H](NC(=O)c1cc(F)c(N2CC(CC#N)(n3cc(-c4ncnc5[nH]ccc45)cn3)C2)cc1F)C(F)(F)F`, the JAK2/JAK1 on JAK2 (a.a. 828-1132) is over 10. The IC50 in test [1] was under 10 nM.

Values taken from patent US11596632B2, “JAK1 pathway inhibitors for the treatment of gastrointestinal disease” (Incyte Corporation, priority 2018, dated 2023).
